Experiments:
[1] = tested on: PC-9 EGFR-Del19-T790M-C797S cells; experiment: Inhibition of proliferation of PC-9-EGFR (Del19 T790M C797S) cells, CCK-8; conditions: read-out: PC-9-EGFR (Del19 T790M C797S) cell inhibitory activity IC50, 72 h
Experimental: PC-9 EGFR-Del19-T790M-C797S cells in the logarithmic growth phase and good conditions were taken, washed with PBS, digested with pancreatin, terminated with a complete medium, collected and added to a centrifuge tube, adjusted to a cell density of 2×10^4 cells/mL, and seeded in a 96-well plate (100 μL/well). Meanwhile, compounds were loaded using a nanoliter pipettor resulting in the final concentrations of the compounds of 1000 nM-0.06 nM, and a control was set, replicate wells for each concentration. After 72 h of incubation in the cell incubator, the assay reagent CCK-8 (manufacturer: Dojindo Laboratories, Beijing; 10 μL/well) was added. After 2 h of incubation in the cell incubator, absorbance was measured at 450 nm on a PerkinElmer Envision microplate reader, and the inhibition rate was calculated.
Inhibition rate (%)=(mean value of negative control group-mean value of experimental group)/(mean value of negative control group−mean value of blank group)×100%.
A dose-response curve was fitted by four-parameter analysis, with the logarithm of compound concentration serving as abscissa and inhibition rate serving as ordinate, such that IC50 was calculated.

[2] = In vitro stability in liver microsomes; conditions: Human liver microsome
Experimental: 300 μL of the final incubation system contains 30 μL of liver microsomes (protein concentration: 0.15 mg/mL), 30 μL of NADPH+MgCl2, 3 μL of the test compound (in acetonitrile), and 237 μL of PBS buffer (pH 7.4). The proportion of the organic solvent (acetonitrile) was 1%. Samples were prepared in duplicate of 0.3 mL for each species (e.g., human or mouse liver microsomes). Tubes each containing 270 μL of a mixed solution of substrate and enzyme […] were pre-incubated at 37° C. for 5 min. 30 μL of NADPH+MgCl2 was added and the mixture was mixed. 50 μL of the mixture was taken at 0 min, 15 min, 30 min, and 60 min, and 300 μL of glacial acetonitrile containing an internal standard was added to terminate the reaction.
50 μL of the incubated sample was added with 300 μL of glacial acetonitrile containing an internal standard (20 ng/mL diazepam) for precipitation. The mixture was vortexed for 5 min, and centrifuged (12,000 rpm, 4° C.) for 10 min. 75 μL of supernatant was taken and diluted with 75 μL of ultrapure water. After being homogeneously mixed, 0.5 μL of the resulting sample was injected for analysis.

IC50 [1] [nM] | Stability in liver microsomes (residual %, T = 60 min) [2] [%] | SMILES
< 50 |  | Cc1cc2cc(n1)-c1cnn(C)c1OCCC[C@@H](C1CC1)CN1C(=NC2=O)Nc2cc(NC(C)C3COC3)ccc21 (single isomer, unassigned)
 | 86.29 | Cc1cc2cc(n1)-c1cnn(C3CC3)c1OCCC[C@@H](C)CN1C(=NC2=O)Nc2ccc(NC3CCN(C)CC3)cc21
